# Yeast mating assay 1: variants of the scFv Ab-14

Reference: Engelhart et al. 2022, doi:10.1038/s41597-022-01779-4. File: FLAb, binding data.

Target: peptide PDVDLGDISGINAS, taken from heptad repeat 2 (HR2) of SARS-CoV-2 spike.

Parent scFv Ab-14: VH joined to VL by three GGGGS repeats. Changes lie in the heavy chain CDRs alone.
VH: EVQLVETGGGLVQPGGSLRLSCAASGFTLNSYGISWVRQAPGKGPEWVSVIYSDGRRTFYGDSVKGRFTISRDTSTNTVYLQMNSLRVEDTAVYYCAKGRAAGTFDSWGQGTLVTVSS
VL: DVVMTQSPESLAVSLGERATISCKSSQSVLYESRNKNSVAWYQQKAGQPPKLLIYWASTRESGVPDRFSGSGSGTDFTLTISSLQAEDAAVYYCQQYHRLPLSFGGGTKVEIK

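The starting antibody came from a phage panning campaign against this peptide. In library AAYL49, one, two or three CDR residues were substituted; doubles and triples were drawn at random. Affinity was read by AlphaSeq, a pooled yeast mating assay with surface-displayed partners. Binding brings cells together so that they mate, and sequencing counts the barcode pairs among the diploids. The ratio of observed to expected reads was calibrated, replicate by replicate, on BCL2-family standards whose Kd was known from biolayer interferometry. The assay was run in three technical replicates.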

Substitutions are numbered in sequence along the VH above, starting at 1 (not Kabat).
The read-out is the apparent dissociation constant on a log10 scale (nM): the lower, the stronger.
Replicates are averaged; those with no signal do not enter the mean.
Where no diploid with the target was found in that replicate, the entry reads "nd": below detection, most likely a poor binder, though not proof of it.
Order: sorted from the lowest average up, undetected variants last.

| log10 Kd, replicates | mean log10 Kd (nM) | control signals | changes |
|---|---|---|---|
| 0.40 / 0.58 / 0.65 | 0.54 | 5 of 9 (4.05) | L29I+S31E |
| 1.53 / 1.59 / 1.86 | 1.66 | 3 of 9 (4.42) | F27V+A101K+T104S |
| 2.12 / 1.91 / 2.14 | 2.06 | 4 of 9 (4.36) | T28I+V64S+A101E |
| nd / nd / 3.16 | 3.16 | 0 of 9 | T28V+V50M+G103E |
| 3.70 / nd / 3.47 | 3.58 | 4 of 9 (4.00) | F27N+S31F+G33C |
| 4.11 / 3.64 / nd | 3.87 | 4 of 9 (4.51) | G26L+G61N+S107I |
| nd / 3.96 / nd | 3.96 | 2 of 9 (3.48) | I34L+V50T+G55H |
| 3.99 / nd / nd | 3.99 | 1 of 9 (3.69) | S31H+S35K+F59P |
| nd / nd / 4.10 | 4.10 | 3 of 9 (4.27) | T28L+D62G+A102V |
| 4.18 / nd / nd | 4.18 | 1 of 9 (3.56) | S35E+F59E+S107R |
| nd / 4.20 / nd | 4.20 | 1 of 9 (3.51) | N30K+Y32R+V50T |
| 3.96 / 3.99 / 4.89 | 4.28 | 5 of 9 (4.14) | S53I+R57Q+V64N |
| 4.49 / 3.99 / 4.63 | 4.37 | 6 of 9 (4.54) | L29W+S31V+R56T |
| 4.91 / 4.18 / nd | 4.55 | 3 of 9 (4.46) | S31W+R100C+S107W |
| nd / nd / 4.65 | 4.65 | 1 of 9 (4.12) | R57I+T58M+G61A |
| 4.55 / nd / 5.45 | 5.00 | 0 of 9 | S53F+D62V+G103I |
| 5.84 / 3.69 / 5.68 | 5.07 | 1 of 9 (4.16) | S35Y+R57E+S63E |
| 5.09 / nd / nd | 5.09 | 2 of 9 (3.91) | I34D+Y60P+K65R |
| nd / nd / nd | nd | 0 of 9 | N30F+D54Q+S107P |
| nd / nd / nd | nd | 0 of 9 | G33H+G55P+R100E |
| nd / nd / nd | nd | 0 of 9 | Y32R+R57G+T58H |
| nd / nd / nd | nd | 1 of 9 (4.67) | I51T+D62L+A101I |
| nd / nd / nd | nd | 0 of 9 | G26I+S35A+I51P |
| nd / nd / nd | nd | 1 of 9 (4.12) | G55Q+G99W |
| nd / nd / nd | nd | 0 of 9 | S31R+D54A+G99F |
| nd / nd / nd | nd | 1 of 9 (2.00) | S35A+S53Q+R56P |
| nd / nd / nd | nd | 1 of 9 (3.73) | D54K+K65A+R100H |
| nd / nd / nd | nd | 0 of 9 | L29Q+V50Y+T58N |
| nd / nd / nd | nd | 0 of 9 | T28N+D54Y+R57E |
| nd / nd / nd | nd | 0 of 9 | N30A+F59T+S63K |

Nonspecific signal, from three strains lacking the peptide, appeared in 15% of pairings of library AAYL49, centred on 4.06 (5% of these signals below 2.83); values are not corrected for it. The control count says in how many pairings with the empty strains this scFv gave a signal, with their mean in brackets.
In this assay the parent's reference entry averaged 0.65; its copy inside this library read 4.11 (one replicate of three).